{"sequences": {"note": "By UniProt entry, the sequences of proteins in these tests, tags left out.", "UniProt Q61009, whole entry": "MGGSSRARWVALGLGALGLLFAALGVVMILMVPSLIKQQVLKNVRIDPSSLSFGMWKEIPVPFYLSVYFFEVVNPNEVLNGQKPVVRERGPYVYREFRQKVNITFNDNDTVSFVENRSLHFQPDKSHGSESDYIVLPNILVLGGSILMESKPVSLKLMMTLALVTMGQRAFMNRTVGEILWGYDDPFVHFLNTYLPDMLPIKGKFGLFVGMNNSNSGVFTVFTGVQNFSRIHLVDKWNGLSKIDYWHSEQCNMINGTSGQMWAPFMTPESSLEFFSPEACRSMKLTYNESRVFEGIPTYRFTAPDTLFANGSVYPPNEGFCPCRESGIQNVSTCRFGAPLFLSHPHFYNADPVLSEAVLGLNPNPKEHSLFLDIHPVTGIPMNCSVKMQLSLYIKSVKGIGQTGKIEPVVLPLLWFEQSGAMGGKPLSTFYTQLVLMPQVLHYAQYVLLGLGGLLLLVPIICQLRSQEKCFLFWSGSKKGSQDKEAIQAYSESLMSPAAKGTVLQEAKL"}, "source": "PubChem BioAssay AID488896", "about": "(Broad Institute, 2010)", "note": "This is a selection; strong and weak results do not stand in their true shares. Some salts and complexes are drawn in separate pieces, as the source files them; their charges need not balance. The source made the active and inactive calls.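 The calls were made as follows: active = mean replicate inhibition of at least 70% and a set share of replicates each scoring 70 or more; inconclusive = meets just one of the two criteria; inactive = fails both criteria.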", "data": [{"molecular_target": "Scavenger receptor class B member 1 (Mus musculus) (UniProt Q61009)", "assay": "inhibitors of SR-BI mediated HDL lipid uptake, primary screen, ldlA[mSR-BI] cells, fluorescence, single point (AID 488896);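 also: 0% = median of neutral control wells and 100% = median of positive control wells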", "conditions": "ldlA[mSR-BI] CHO cells, DiI-HDL uptake fluorescence, 3 h; at 12.5 µM; active compounds read high", "values": [{"smiles": "CCN(CC)CCCOC(=O)C(O)(c1ccccc1)c1ccccc1", "inhibition": "inactive: 1.84%"}, {"smiles": "O=[N+]([O-])c1cc([N+](=O)[O-])c(Nc2cccnc2)c([N+](=O)[O-])c1", "inhibition": "inactive: -23.5%"}, {"smiles": "Cc1cccc(C)c1OP(C)(N)=O", "note": "(stereo unspecified)", "inhibition": "inactive: -19.3%"}, {"smiles": "CC(C)(C)c1ccc(OP(C)(=O)Nc2ccc(SC(F)(F)F)cc2)cc1", "note": "(stereo unspecified)", "inhibition": "inactive: 14.6%"}, {"smiles": "O=[N+]([O-])c1ccc2c(c1)C=Nc1ccccc1O2", "inhibition": "inactive: 3.46%"}, {"smiles": "CCOC(=O)c1ccc(NP(C)(=O)Oc2ccccc2)cc1", "note": "(stereo unspecified)", "inhibition": "inactive: -16.8%"}, {"smiles": "Cc1ccc(NP(C)(=O)Oc2ccccc2)c(C)c1", "note": "(stereo unspecified)", "inhibition": "inactive: 4.88%"}, {"smiles": "COc1ccccc1OP(C)(=O)Nc1ccc(C)cc1", "note": "(stereo unspecified)", "inhibition": "inactive: -22.8%"}, {"smiles": "COc1ccc(OP(C)(=O)Nc2cccc(F)c2)cc1", "note": "(stereo unspecified)", "inhibition": "inactive: 2.58%"}, {"smiles": "COc1ccccc1OP(C)(=O)Nc1cc(Cl)ccc1C", "note": "(stereo unspecified)", "inhibition": "inactive: 28.8%"}, {"smiles": "Cc1cc(C)cc(OP(C)(N)=O)c1", "note": "(stereo unspecified)", "inhibition": "inactive: -31.1%"}, {"smiles": "CP(=S)(Nn1cnnc1)Oc1ccccc1", "note": "(stereo unspecified)", "inhibition": "inactive: -11.6%"}, {"smiles": "COc1ccccc1OP(C)(=O)Nc1ccccc1", "note": "(stereo unspecified)", "inhibition": "inactive: -3.69%"}, {"smiles": "CP(=O)(Nc1ccccc1Br)Oc1ccccc1", "note": "(stereo unspecified)", "inhibition": "inactive: -63.6%"}, {"smiles": "CP(=O)(Oc1ccccc1)OC(c1ccccc1)C(F)(F)F", "note": "(stereo unspecified)", "inhibition": "inactive: -23.4%"}, {"smiles": "Cc1cccc(C)c1OP(C)(=O)Nc1ccc(SC(F)(F)F)cc1", "note": "(stereo unspecified)", "inhibition": "inactive: 15.2%"}, {"smiles": "Cc1cc(C)cc(OP(C)(=O)Nc2ccc(SC(F)(F)F)cc2)c1", "note": "(stereo unspecified)", "inhibition": "inactive: -15.3%"}, {"smiles": "CP(=O)(NC(=O)Nc1ccccc1)Oc1ccccc1", "note": "(stereo unspecified)", "inhibition": "inactive: -31%"}, {"smiles": "CCOP(C)(=S)SCC(=O)NC(C)C(=O)O", "note": "(stereo unspecified)", "inhibition": "inactive: -11.2%"}, {"smiles": "CCOC(=O)c1ccc(NP(C)(=O)Oc2ccc(OC)cc2)cc1", "note": "(stereo unspecified)", "inhibition": "inactive: 15.4%"}, {"smiles": "CP(=O)(Nc1ccccn1)Oc1ccc(Cl)cc1", "note": "(stereo unspecified)", "inhibition": "inactive: -15.7%"}, {"smiles": "O=[N+]([O-])c1cc([N+](=O)[O-])c(-n2nnc3ccccc32)c([N+](=O)[O-])c1", "inhibition": "inactive: -12.8%"}, {"smiles": "O=[N+]([O-])c1cc([N+](=O)[O-])c(-c2cnn(-c3ccccc3)c2)c([N+](=O)[O-])c1", "inhibition": "inactive: 31.8%"}, {"smiles": "Cc1nc2ccc3ccccc3c2s1.O=[N+]([O-])c1cc([N+](=O)[O-])c(O)c([N+](=O)[O-])c1", "inhibition": "inactive: 10.9%"}, {"smiles": "CCOC(=O)C(CC)C1=NC(C)(C)Cc2ccccc21.O=[N+]([O-])c1cc([N+](=O)[O-])c(O)c([N+](=O)[O-])c1", "note": "(stereo unspecified)", "inhibition": "inactive: 1.44%"}, {"smiles": "CC1=C2N=C(C=C3N=C(C(C)=C4[N-][C@@](C)([C@@H]5N=C1[C@](C)(CCC(=O)NC[C@@H](C)OP(=O)([O-])O[C@H]1[C@@H](O)[C@@H](n6cnc7cc(C)c(C)cc76)O[C@@H]1CO)[C@H]5CC(N)=O)[C@@](C)(CC(N)=O)[C@@H]4CCC(N)=O)[C@@](C)(CC(N)=O)[C@@H]3CCC(N)=O)C(C)(C)[C@@H]2CCC(N)=O.[C-]#N.[Co+3]", "inhibition": "inactive: -3.45%"}, {"smiles": "O=[N+]([O-])c1cc([N+](=O)[O-])c(Nc2nnnn2CCO)c([N+](=O)[O-])c1", "inhibition": "inactive: -7.74%"}, {"smiles": "COc1ccccc1OP(C)(=O)Nc1c(C)cccc1C", "note": "(stereo unspecified)", "inhibition": "inactive: -12.9%"}, {"smiles": "CN1CCCCC1COC(=O)C1(O)c2ccccc2CCc2ccccc21", "note": "(stereo unspecified)", "inhibition": "inactive: 3.92%"}, {"smiles": "CCCOc1ccc(NP(C)(=O)Oc2ccc(Cl)cc2)cc1", "note": "(stereo unspecified)", "inhibition": "inactive: 6.06%"}, {"smiles": "CP(=O)(Nc1ccc(SC(F)(F)F)cc1)Oc1ccccc1", "note": "(stereo unspecified)", "inhibition": "inactive: -4.62%"}, {"smiles": "COc1ccccc1OP(C)(=O)Nc1cccc(Br)c1", "note": "(stereo unspecified)", "inhibition": "inactive: -8.69%"}, {"smiles": "Cc1cc(C)cc(OP(C)(=O)Nc2ccc(C)cc2C)c1", "note": "(stereo unspecified)", "inhibition": "inactive: 27.2%"}, {"smiles": "CCOC(=O)c1ccc(NP(C)(=O)Oc2cc(C)cc(C)c2)cc1", "note": "(stereo unspecified)", "inhibition": "inactive: 6.86%"}, {"smiles": "Cc1cc(C)cc(OP(C)(=O)Nc2ccccn2)c1", "note": "(stereo unspecified)", "inhibition": "inactive: -8.53%"}, {"smiles": "CP(=O)(Nc1cccc(Br)c1)Oc1ccccc1", "note": "(stereo unspecified)", "inhibition": "inactive: 1.13%"}, {"smiles": "Cc1ccc(C)c(NP(C)(=O)Oc2ccccc2)c1", "note": "(stereo unspecified)", "inhibition": "inactive: -9.76%"}, {"smiles": "CC(C)c1ccc(OP(C)(=O)Nc2ccc(SC(F)(F)F)cc2)cc1", "note": "(stereo unspecified)", "inhibition": "inactive: -2.21%"}, {"smiles": "CP(=O)(Nc1ccccc1F)Oc1ccccc1", "note": "(stereo unspecified)", "inhibition": "inactive: -9.12%"}, {"smiles": "O=C(OCCN1CCN(CCOCc2ccccc2)CC1)C(O)(c1ccccc1)c1ccccc1", "inhibition": "inactive: -0.742%"}, {"smiles": "O=C(OC1CN2CCC1CC2)c1ccc([N+](=O)[O-])cc1", "note": "(stereo unspecified)", "inhibition": "inactive: -6.48%"}, {"smiles": "COc1ccc2c(c1O)-c1c(O)c(OC)cc3c1[C@H](C2)[N+](C)(C)CC3.O=[N+]([O-])c1cc([N+](=O)[O-])c([O-])c([N+](=O)[O-])c1[O-]", "inhibition": "inactive: -13.3%"}, {"smiles": "COc1ccc(OP(C)(=O)Nc2ccc(SC(F)(F)F)cc2)cc1", "note": "(stereo unspecified)", "inhibition": "inactive: -43.5%"}, {"smiles": "CCOC(=O)c1ccc(NP(C)(=O)Oc2ccc(F)cc2)cc1", "note": "(stereo unspecified)", "inhibition": "inactive: 2.22%"}, {"smiles": "CCN(CC)CCCOC(=O)C(O)(c1ccccc1)C1CCCCC1", "note": "(stereo unspecified)", "inhibition": "inactive: -23.1%"}, {"smiles": "Cc1c([N+](=O)[O-])cc([N+](=O)[O-])c(Br)c1[N+](=O)[O-]", "inhibition": "inactive: 12.9%"}, {"smiles": "CCCCCOc1ccc(NP(C)(=O)Oc2ccc(Cl)cc2Cl)cc1", "note": "(stereo unspecified)", "inhibition": "inactive: -21.1%"}, {"smiles": "O=[N+]([O-])c1cc([N+](=O)[O-])c(OC2CCCCC2O)c([N+](=O)[O-])c1", "note": "(stereo unspecified)", "inhibition": "inactive: 1.94%"}, {"smiles": "CP(=O)(Nc1ccccc1)Oc1ccc(F)cc1", "note": "(stereo unspecified)", "inhibition": "inactive: -17%"}, {"smiles": "COc1ccc(OP(C)(=O)Nc2cccc(Br)c2)cc1", "note": "(stereo unspecified)", "inhibition": "inactive: -2.34%"}, {"smiles": "COc1ccc(NP(C)(=O)Oc2ccccc2OC)cc1", "note": "(stereo unspecified)", "inhibition": "inactive: 15%"}, {"smiles": "CN(C)CCOC(=O)C(O)(c1ccccc1)C1CCCCC1", "note": "(stereo unspecified)", "inhibition": "inactive: 9.97%"}, {"smiles": "Cc1cc(-c2cccc3ccccc23)c(C)cn1.O=[N+]([O-])c1cc([N+](=O)[O-])c(O)c([N+](=O)[O-])c1", "inhibition": "inactive: 13.1%"}, {"smiles": "O=[N+]([O-])c1cc([N+](=O)[O-])c(NCC2CCS(=O)(=O)C2)c([N+](=O)[O-])c1", "note": "(stereo unspecified)", "inhibition": "inactive: -31.9%"}, {"smiles": "O=[N+]([O-])c1ccc(OP2(=O)COCCO2)cc1", "note": "(stereo unspecified)", "inhibition": "inactive: -0.356%"}, {"smiles": "CP(=O)(Nc1ccc(SC(F)(F)F)cc1)Oc1ccc(F)cc1", "note": "(stereo unspecified)", "inhibition": "inactive: -2.3%"}]}]}
